Values of other authors, collected in article PMC3476531, “Synergy of Peptide and Sugar in O-GlcNAcase Substrate Recognition” (Chemistry & Biology, 2012).

By UniProt entry, the sequences of proteins in these tests, tags left out.
UniProt O60502, whole entry: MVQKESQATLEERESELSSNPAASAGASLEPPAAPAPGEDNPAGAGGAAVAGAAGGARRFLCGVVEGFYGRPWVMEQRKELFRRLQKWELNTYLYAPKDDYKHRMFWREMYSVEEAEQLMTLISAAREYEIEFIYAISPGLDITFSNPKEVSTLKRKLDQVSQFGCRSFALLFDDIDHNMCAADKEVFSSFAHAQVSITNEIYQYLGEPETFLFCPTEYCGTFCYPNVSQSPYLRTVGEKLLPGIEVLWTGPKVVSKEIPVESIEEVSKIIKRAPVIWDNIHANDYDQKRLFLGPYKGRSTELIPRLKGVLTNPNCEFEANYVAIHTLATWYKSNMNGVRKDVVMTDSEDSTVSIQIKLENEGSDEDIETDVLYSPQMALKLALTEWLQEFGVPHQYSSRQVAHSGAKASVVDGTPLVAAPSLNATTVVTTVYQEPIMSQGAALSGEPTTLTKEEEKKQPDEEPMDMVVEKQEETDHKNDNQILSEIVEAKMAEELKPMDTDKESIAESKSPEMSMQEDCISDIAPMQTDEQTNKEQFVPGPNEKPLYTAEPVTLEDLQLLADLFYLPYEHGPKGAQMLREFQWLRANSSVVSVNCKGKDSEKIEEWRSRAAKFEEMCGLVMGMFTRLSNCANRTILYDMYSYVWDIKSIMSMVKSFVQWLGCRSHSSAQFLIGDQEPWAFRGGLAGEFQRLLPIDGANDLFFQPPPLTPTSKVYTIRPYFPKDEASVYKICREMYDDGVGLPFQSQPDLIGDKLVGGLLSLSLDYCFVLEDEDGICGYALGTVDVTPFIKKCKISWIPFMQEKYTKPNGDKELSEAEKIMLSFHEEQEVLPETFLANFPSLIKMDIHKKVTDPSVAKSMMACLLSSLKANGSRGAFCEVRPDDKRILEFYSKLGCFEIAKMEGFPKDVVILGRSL

Target: hOGA (Homo sapiens, UniProt O60502)
Settings: read-out: Michaelis constant (KM) of glycopeptide substrate for hOGA; wild-type hOGA; substrate competition assay with 4MU-GlcNAc; value reproduced from earlier paper; ref Schimpl et al., 2010; cited from earlier work

**Q.** With CC(=O)N[C@H]1[C@H](OC[C@H](NC(=O)[C@H](Cc2c[nH]cn2)NC(=O)[C@H](C)NC(=O)[C@@H](NC(C)=O)C(C)C)C(=O)NCC(=O)N[C@@H](C)C(N)=O)O[C@H](CO)[C@@H](O)[C@@H]1O as the molecule, how does the Km read?
**A.** 1200 µM
